Results from ChEMBL document CHEMBL1127071, “Structure-activity relationships of C-terminal endothelin hexapeptide antagonists” (J Med Chem, 1993).

The chains behind the UniProt entries cited, without tags or fusion partners. Where a name states a change or a piece, a line headed by the entry shows the natural chain unless it says otherwise.
UniProt P26684: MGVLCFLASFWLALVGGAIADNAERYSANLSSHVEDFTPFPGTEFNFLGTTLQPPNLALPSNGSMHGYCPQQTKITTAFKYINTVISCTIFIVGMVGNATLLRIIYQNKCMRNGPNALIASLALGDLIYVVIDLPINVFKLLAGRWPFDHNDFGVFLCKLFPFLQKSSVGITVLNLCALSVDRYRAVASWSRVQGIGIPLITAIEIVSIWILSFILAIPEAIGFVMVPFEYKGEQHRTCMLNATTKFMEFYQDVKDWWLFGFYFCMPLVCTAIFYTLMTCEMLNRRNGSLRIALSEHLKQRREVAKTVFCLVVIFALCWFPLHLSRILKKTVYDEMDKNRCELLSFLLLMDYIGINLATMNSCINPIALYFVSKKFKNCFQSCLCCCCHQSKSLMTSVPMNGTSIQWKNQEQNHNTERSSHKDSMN

Experiments:
[1] = target: T1, Endothelin receptor type B (Rattus norvegicus, UniProt P21451); test: Effective concentration against Endothelin B receptor from rat cerebellum; format: tissue-based
T1 sequence (P21451 whole entry): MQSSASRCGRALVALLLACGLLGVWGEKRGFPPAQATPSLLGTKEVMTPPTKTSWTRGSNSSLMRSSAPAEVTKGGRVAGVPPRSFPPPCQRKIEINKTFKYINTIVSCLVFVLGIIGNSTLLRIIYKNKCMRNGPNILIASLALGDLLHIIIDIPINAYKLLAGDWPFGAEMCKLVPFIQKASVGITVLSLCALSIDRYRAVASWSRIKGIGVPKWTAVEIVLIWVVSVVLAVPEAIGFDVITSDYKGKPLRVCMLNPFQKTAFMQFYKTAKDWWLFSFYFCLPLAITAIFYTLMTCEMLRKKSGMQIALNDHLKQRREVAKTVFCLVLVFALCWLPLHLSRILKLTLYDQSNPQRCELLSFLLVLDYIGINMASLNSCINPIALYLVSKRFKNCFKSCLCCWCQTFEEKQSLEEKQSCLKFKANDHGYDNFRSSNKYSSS

Endothelin receptor = Endothelin receptor (Rattus norvegicus, UniProt P26684+P21451); test: Binding affinity against Endothelin receptor from rat heart ventricle; format: protein assay

Row | IC50 [1] [nM] | IC50 (Endothelin receptor) [nM] | Structure (SMILES)
1 | 450 |  | CC[C@H](C)[C@H](NC(=O)[C@H](CC(=O)O)NC(=O)[C@H](CC(C)C)NC(=O)[C@@H](Cc1c[nH]c2ccccc12)NC(C)=O)C(=O)N[C@H](C(=O)N[C@@H](Cc1c[nH]c2ccccc12)C(=O)O)[C@@H](C)CC
2 |  | 4400 | CC[C@H](C)[C@H](NC(=O)[C@H](CC(=O)O)NC(=O)[C@H](CC(C)C)NC(=O)[C@@H](Cc1ccc(-c2ccccc2)cc1)NC(C)=O)C(=O)N[C@H](C(=O)N[C@@H](Cc1c[nH]c2ccccc12)C(=O)O)[C@@H](C)CC
